# Only some compounds are listed: those with a hit (about 3.7% of all), similar ones and a draw of the others.
# A549 tox = A549 cytotoxicity, counter-screen for Nrf2 inhibitors. hit rate 0.16% among 390,000. Potency, µM (doses to about 46 µM), for inactives: top-dose activity change, negative = cytotoxicity, actives largely listed as inhibitors. A549 ARE-Fluc cells, CellTiter-Fluor viability, 18-24 h. AID 504648; also: potency is read from the fitted curve at half-maximal effect; % is scaled to controls: 0 for no effect and ±100 for the full control effect
#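 A549 ARE_Fluc cells in 5% FBS OPTI-MEM were exposed to compounds in concentration-response for 18-24 h at 37 deg C. Viability was read by CellTiter-Fluor fluorescence (Ex 405/Em 525) after 30 min, before the luciferase read.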
# miR-21 reporter = miR-21 reporter, rising signal; HeLa miR-21 FLuc reporter, luciferase, 48 h; Potency, µM (top dose mostly 38.3 µM), without a hit: at the top dose reporter change, positive = more light; 340,000 tested, under 10 active; active = well fitted rising curve with a large enough effect; inconclusive = small, poorly fitted or top-dose-only effect; inactive = no such curve, though single readings can be large or run the other way;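 note: % of control where 0% means no effect; miR-21 action dims this reporter so a rising signal means less miR-21 action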
#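 HeLa miR-21-FLuc reporter line, endogenous miR-21; 2000 cells/well in DMEM/10% FBS; compound titration up to ~40uM final, 48 h, 37 degree Celsius; luciferase detection reagent, 15 min lysis, CCD luminescence.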
# Nrf2 ARE act = activators of Nrf2 (ARE) signaling. AREc32 ARE-luciferase reporter (MCF7-derived line), luminescence, 24 h. Potency, µM (highest dose often 46.1 µM), without a hit: at the highest dose activation, most hits filed as activators. hit rate 0.31% among 410,000. AID 624171; also: potency is read from the fitted curve at half-maximal effect; % of control where 0% means no effect; nearly all actives have a fitted effect of over 65% in size
#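 Luciferase luminescence (Steady-Glo, 30 min at room temperature) served as the read-out of ARE activation in AREc32 cells treated with compounds for 24 hr at 37 deg C.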
# ClpP mod = qHTS Assay for Activators of ClpP; AID 651965, 2013; Potency, µM (top dose mostly 57.5 µM), inactives show at the highest dose activity change, negative = active; purified B. subtilis ClpP, FRET peptide cleavage, 20 min; hit rate 1.9% among 340,000; ATP-dependent Clp protease proteolytic subunit (Bacillus subtilis (strain 168)), P80244; active = well fitted falling curve with a large enough effect; inconclusive = small, poorly fitted or top-dose-only effect; inactive = no such curve, though single readings can be large or run the other way; also: potency is read from the fitted curve at half-maximal effect; the source files actives as falling curves though it sought activators and does not explain the sign; nearly all actives have a fitted effect of over 65% in size
#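 Purified B. subtilis ClpP, 10 microg/mL final in Tris/HCl pH8 with KCl, BSA, glycerol and Tween-20, cleaved an Abz/nitrotyrosine-quenched decapeptide. Fluorescence (ex 320, em 430) was read at 0 and 20 min at room temperature. Delta was normalized to 5.8 microM ADEP and DMSO/no-enzyme controls.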
# Nrf2 inh = Nrf2 pathway inhibition; A549 ARE-Fluc reporter, luciferase luminescence, 18-24 h; Potency, µM (highest dose often 46 µM), inactives show top-dose activity change, negative = inhibition, most hits filed as inhibitors; hit rate 2.1% among 360,000; also: potency is read from the fitted curve at half-maximal effect; % is scaled to controls: 0 for no effect and ±100 for the full control effect; nearly all actives have a fitted effect of over 60% in size
#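 Nrf2 function is reported as luminescence of an ARE-controlled luciferase in A549 cells. Compounds were tested at several concentrations, and a CellTiter-Fluor read on the same wells flagged cytotoxicity.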
# IL2 activator = IL-2 activation; IL-2 activation reporter assay, cell-based qHTS; stimulated with anti-CD3/CD4/CD28 beads; in transgenic mouse T cells; activation, % (series mostly up to about 46 µM); hit rate 0.065% among 360,000; in the data active = activation above about 50%; inconclusive = mostly about 30% to 49%; also: 0% is about no effect
#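 Quantitative HTS in unstimulated transgenic mouse T cells, with memory T cells as non-tolerant control and PMA/ionomycin as tolerance-bypass control. Compound pretreatment lasted 60 minutes before 18 h bead stimulation; EGFP/DsRed fluorescence read.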
# An asterisk follows results filed as active; ? = inconclusive; . = no result given; [ ] = remark or other dose. Unless noted, calls follow the shape of the dose curve; as a rule, active = well fitted curve in the direction sought with a large enough effect; inconclusive = small, poorly fitted or top-dose-only effect, or another doubt; inactive = no such curve, though single readings can be large; an effect the other way counts as inactive or inconclusive.
1	Cc1ccc(NC(=O)c2ccc(=O)n(Cc3ccccc3C)c2)c(C)c1
2	Cc1ccc(C)c(NS(=O)(=O)c2cc3c(cc2C)n(C)c(=O)c(=O)n3C)c1
3	C/C=C(/C)C(=O)OC1c2c(ccc3ccc(=O)oc23)OC(C)(C)C1OC(C)=O (centres undefined)
4	COc1ccc(N2CCN(C(=O)C3Cc4ccccc4N3C(C)=O)CC2)cc1 (centres undefined)
5	CC1(C)Cc2c(sc3c2c(N)nc(=S)n3Cc2ccccc2)CO1
6	CC1(C)Cc2c(sc3[nH]c(=S)n(Cc4ccccc4)c(=O)c23)CO1

Compound	1	2	3	4	5	6
A549 tox	10.8%	7.4%	-3.8%	0.7%	.	?
miR-21 reporter	0.9%	-1.2%	0.7%	2.3%	-3.3%	-7.1%
Nrf2 ARE act	-0.7%	-0.1%	0.5%	0.1%	.	0.0%
ClpP mod	-3.3%	-10.7%	15.8µM*	-7.7%	.	-0.2%
Nrf2 inh	.	-11.4%	-25.0%	.	.	16.4µM*
IL2 activator	.	.	-4.1	.	.	-0.9

7	C=C(C)CN=c1scc(C)n1/N=C/c1ccco1
8	COc1ccc(CN(C)c2ccc(-c3nc(-c4ccc(OC)c(OC)c4)no3)cc2[N+](=O)[O-])cc1
9	CCCCN(C)CCCNC(=O)Cn1ncc2c3ccccc3n(Cc3ccccc3)c2c1=O
10	COc1ccc(-c2n[nH]c(C(F)(F)F)c2-c2cc3ccccc3o2)c(O)c1
11	N#Cc1ccc(N2CCN(S(=O)(=O)c3ccc4c(c3)CC(=O)N4)CC2)cc1
12	CCOC(=O)/C=C/c1cc(F)c(S(=O)(=O)N2CCN(S(=O)(=O)c3ccc4c(c3)OCCO4)CC2)cc1F

Compound	7	8	9	10	11	12
A549 tox	-8.1%	0.4%	3.9%	16.4µM*	14.5%	0.7%
miR-21 reporter	-22.3%	3.6%	-0.6%	?	.	.
Nrf2 ARE act	12.6µM*	-0.7%	0.0%	-0.8%	.	.
ClpP mod	-2.1%	-1.4%	?	25.1µM*	.	.
Nrf2 inh	2.1%	-29.9%	33.7%	16.4µM*	6.6%	6.8%
IL2 activator	-1.5	.	.	-2.4	.	.

13	O=C(Cn1sc2ccccc2c1=O)NC12CC3CC(CC(C3)C1)C2
14	COc1ccc(S(=O)(=O)N(CCc2ccccc2)CC(=O)Nc2cc(C)ccc2C)cc1
15	Cc1ccc(Oc2c(C(N)=O)cc([N+](=O)[O-])cc2[N+](=O)[O-])cc1
16	COc1ccc(OC)c2sc(N3CCN(C(=O)C(C)(C)C)CC3)nc12
17	CCCN(CCC)CCCNC(=O)C1CCC(CNS(=O)(=O)c2ccc(NC(C)=O)cc2)CC1 (centres undefined)
18	N#CC(=Cc1ccccn1)c1nc(-c2ccc(Cl)cc2)cs1

Compound	13	14	15	16	17	18
A549 tox	-1.5%	-5.3%	4.11µM*	-5.9%	-0.6%	.
miR-21 reporter	17.4%	19.1%	?	-46.3%	-0.8%	.
Nrf2 ARE act	12.6µM*	0.4%	-3.3%	4.7%	0.4%	12.6µM*
ClpP mod	-19.1%	-7.8%	-1.8%	1.3%	0.8%	25.1µM*
Nrf2 inh	14.6%	?	5.8µM*	.	.	.
IL2 activator	-7.8	.	-3.3	.	.	-1.9

19	COc1ccc(/C=C/C(=O)c2ccc3c4c(cccc24)CC3)cc1OC
20	Cc1ccc2[nH]c3c(N4CCN(Cc5ccc6c(c5)OCO6)CC4)ncnc3c2c1
21	COc1cccc2[nH]c3c(N4CCC(C)CC4)ncnc3c12
22	COc1cc2[nH]c3c(Cl)ncnc3c2cc1OC
23	COc1cc2[nH]c3c(N4CCN(c5ccc(Cl)cc5)CC4)ncnc3c2cc1OC
24	COc1cccc(N2CCN(c3ncnc4c3[nH]c3ccc(F)cc34)CC2C)c1 (centres undefined)

Compound	19	20	21	22	23	24
A549 tox	-2.5%	.	-6.7%	-19.5%	2.5%[1.84 µM]	18.4µM*
miR-21 reporter	25.4%	-4.4%	-17.4%	-3.0%	-4.5%	?
Nrf2 ARE act	0.5%[9.22 µM]	.	7.4%	5.6%	0.0%	-4.3%
ClpP mod	-1.4%	.	14.1µM*	?	25.1µM*	-13.8%
Nrf2 inh	18.4µM*	.	-3.8%	?	?	6.51µM*
IL2 activator	-0.7	.	-4.2	-3.1	-4.2	-0.9

25	COc1ccc2c(c1)[nH]c1c(N3CCN(Cc4ccc5c(c4)OCO5)CC3)ncnc12
26	CC(=O)N1CCC2(CC1)OC(=O)C(C)=C2C(=O)Nc1cccc(Cl)c1C
27	CC1CCCCN1C(=O)Cn1c(=O)n(-c2ccc(Cl)cc2)c(=O)c2c3c(sc21)CCC3 (centres undefined)
28	COc1ccc2[nH]c3c(N4CC(C)OC(C)C4)ncnc3c2c1 (centres undefined)
29	COc1ccc2c(c1)[nH]c1c(N3CCSCC3)ncnc12
30	CCc1nc2c(c(SC)nn2-c2ccccc2)c(N)c1C(=O)OC

Compound	25	26	27	28	29	30
A549 tox	-6.4%	-1.1%	-15.9%	-3.7%	?	-7.2%
miR-21 reporter	?	0.2%	11.9%	-10.7%	?	-1.7%
Nrf2 ARE act	0.5%	0.2%	-0.5%	4.0%	2.5%	0.9%
ClpP mod	?	-5.5%	0.7%	?	.	31.6µM*
Nrf2 inh	13µM*	15.9%	?	-17.8%	20.6µM*	-3.9%
IL2 activator	-0.5	.	.	-0.3	-4.4	-0.6

31	COC(=O)c1cc(C)nc2c1c(C)nn2-c1ccccc1
32	C1=CN2CC=Cc3cc(/C=C/c4ccnc5ccccc45)cc(c32)C1
33	CN(C)/N=C/C=C1\CCC/C(=C/c2cccs2)C1=O
34	O=C1COc2ccc(C(=O)COC(=O)/C=C/c3ccco3)cc2N1
35	CC(O)C(NS(=O)(=O)c1ccc(Cl)cc1)C(=O)OCC(=O)c1ccc2c(c1)NC(=O)CO2 (centres undefined)
36	CC(C)CC(NC(=O)c1ccc(Cl)cc1)C(=O)OCC(=O)c1ccc2c(c1)NC(=O)CO2 (centres undefined)

Compound	31	32	33	34	35	36
A549 tox	7.9%	.	0.4%	-6.3%	-4.1%	20.6µM*
miR-21 reporter	.	.	-56.6%	.	.	?
Nrf2 ARE act	3.3%	.	10µM*	2.24µM*	0.0%	0.0%
ClpP mod	-7.7%	-16.9%	0.8%	0.8%	-1.3%	1.5%
Nrf2 inh	5.1%	.	?	4.4%	10.4%	16.4µM*
IL2 activator	1.9	.	0.7	4.0	0.8	-3.1

37	COc1ccc(-n2nc3c(c2NC(=O)C(C)Oc2ccccc2)CS(=O)C3)cc1 (centres undefined)
38	CCC(CC)C(=O)Nc1c2c(nn1-c1ccc(OC)cc1)CS(=O)C2 (centres undefined)
39	Cc1cc(C)c(OCC(=O)N(Cc2cccc(F)c2)Cc2ccco2)c(C)c1
40	CCc1ccc(-c2nc(NC(=O)c3ccc(OCC(=O)Nc4ccc(F)cc4)c(OC)c3)sc2C)cc1
41	COc1cc(C(=O)Nc2nc(-c3ccc(Cl)cc3)c(C)s2)ccc1OCC(=O)Nc1ccc(F)cc1
42	CCOC(=O)c1ccc(CN(Cc2ccc(F)cc2)S(=O)(=O)c2ccc(F)c(C(=O)Nc3c(C)cccc3C)c2)cc1

Compound	37	38	39	40	41	42
A549 tox	-4.7%	0.8%	1.4%	1.0%	?	-0.8%
miR-21 reporter	-7.2%	-1.3%	?	2.0%	-4.8%	5.2%
Nrf2 ARE act	-0.7%	0.0%	-1.0%	-0.1%	0.4%[9.22 µM]	0.4%
ClpP mod	31.6µM*	2.1%	0.8%	?	-28.8%	-2.8%
Nrf2 inh	9.9%	?	?	-13.1%	20.6µM*	.
IL2 activator	-3.2	1.0	.	2.0	0.2	.

# 4 of the entries above in order of the miR-21 reporter value, descending:
item | Molecule | miR-21 reporter | Nrf2 ARE act
14 | COc1ccc(S(=O)(=O)N(CCc2ccccc2)CC(=O)Nc2cc(C)ccc2C)cc1 | 19.1% | 0.4%
13 | O=C(Cn1sc2ccccc2c1=O)NC12CC3CC(CC(C3)C1)C2 | 17.4% | 12.6µM*
9 | CCCCN(C)CCCNC(=O)Cn1ncc2c3ccccc3n(Cc3ccccc3)c2c1=O | -0.6% | 0.0%
23 | COc1cc2[nH]c3c(N4CCN(c5ccc(Cl)cc5)CC4)ncnc3c2cc1OC | -4.5% | 0.0%
